The values that follow come from ChEMBL document CHEMBL1132477, “Design and synthesis of novel alpha(1)(a) adrenoceptor-selective antagonists. 2. Approaches to eliminate opioid agonist metabolites via modification of linker and 4-methoxycarbonyl-4-phenylpiperidine moiety” (J Med Chem, 1999).

By UniProt entry, the sequences of proteins in these tests, tags left out.
UniProt P35372, whole entry, looked up: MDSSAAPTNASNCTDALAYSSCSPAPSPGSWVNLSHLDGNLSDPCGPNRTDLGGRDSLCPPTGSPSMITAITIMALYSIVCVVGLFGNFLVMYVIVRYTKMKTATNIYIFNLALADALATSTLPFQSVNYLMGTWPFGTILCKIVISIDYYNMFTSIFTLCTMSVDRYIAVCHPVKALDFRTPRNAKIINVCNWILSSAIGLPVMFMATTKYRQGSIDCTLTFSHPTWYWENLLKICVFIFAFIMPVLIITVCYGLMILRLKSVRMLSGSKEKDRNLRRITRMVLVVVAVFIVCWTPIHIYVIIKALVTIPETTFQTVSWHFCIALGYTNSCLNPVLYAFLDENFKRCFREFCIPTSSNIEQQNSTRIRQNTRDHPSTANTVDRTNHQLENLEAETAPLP

Molecules are shown by their SMILES. pIC50: −log10 of the molar value.

The pIC50 is the IC50 on a negative log10 scale, so that one unit is a factor of ten. Higher therefore signals a small IC50.

The target in the assay is Mu-type opioid receptor (Homo sapiens, UniProt P35372). The assay can be described thus: Inhibitory concentration against Opioid receptor mu 1 using [3H]DAMGO ligand.

Molecule `CCOC(=O)C1(c2ccccc2)CCNCC1` had a pIC50 of 5.96.
